Laboratory results reported in ChEMBL document CHEMBL4342520, “Discovery, Structure-Activity Relationship, and Biological Activity of Histone-Competitive Inhibitors of Histone Acetyltransferases P300/CBP” (J Med Chem, 2020).

Chains of the proteins cited; added tags and fusions are not shown.
UniProt Q09472, whole entry: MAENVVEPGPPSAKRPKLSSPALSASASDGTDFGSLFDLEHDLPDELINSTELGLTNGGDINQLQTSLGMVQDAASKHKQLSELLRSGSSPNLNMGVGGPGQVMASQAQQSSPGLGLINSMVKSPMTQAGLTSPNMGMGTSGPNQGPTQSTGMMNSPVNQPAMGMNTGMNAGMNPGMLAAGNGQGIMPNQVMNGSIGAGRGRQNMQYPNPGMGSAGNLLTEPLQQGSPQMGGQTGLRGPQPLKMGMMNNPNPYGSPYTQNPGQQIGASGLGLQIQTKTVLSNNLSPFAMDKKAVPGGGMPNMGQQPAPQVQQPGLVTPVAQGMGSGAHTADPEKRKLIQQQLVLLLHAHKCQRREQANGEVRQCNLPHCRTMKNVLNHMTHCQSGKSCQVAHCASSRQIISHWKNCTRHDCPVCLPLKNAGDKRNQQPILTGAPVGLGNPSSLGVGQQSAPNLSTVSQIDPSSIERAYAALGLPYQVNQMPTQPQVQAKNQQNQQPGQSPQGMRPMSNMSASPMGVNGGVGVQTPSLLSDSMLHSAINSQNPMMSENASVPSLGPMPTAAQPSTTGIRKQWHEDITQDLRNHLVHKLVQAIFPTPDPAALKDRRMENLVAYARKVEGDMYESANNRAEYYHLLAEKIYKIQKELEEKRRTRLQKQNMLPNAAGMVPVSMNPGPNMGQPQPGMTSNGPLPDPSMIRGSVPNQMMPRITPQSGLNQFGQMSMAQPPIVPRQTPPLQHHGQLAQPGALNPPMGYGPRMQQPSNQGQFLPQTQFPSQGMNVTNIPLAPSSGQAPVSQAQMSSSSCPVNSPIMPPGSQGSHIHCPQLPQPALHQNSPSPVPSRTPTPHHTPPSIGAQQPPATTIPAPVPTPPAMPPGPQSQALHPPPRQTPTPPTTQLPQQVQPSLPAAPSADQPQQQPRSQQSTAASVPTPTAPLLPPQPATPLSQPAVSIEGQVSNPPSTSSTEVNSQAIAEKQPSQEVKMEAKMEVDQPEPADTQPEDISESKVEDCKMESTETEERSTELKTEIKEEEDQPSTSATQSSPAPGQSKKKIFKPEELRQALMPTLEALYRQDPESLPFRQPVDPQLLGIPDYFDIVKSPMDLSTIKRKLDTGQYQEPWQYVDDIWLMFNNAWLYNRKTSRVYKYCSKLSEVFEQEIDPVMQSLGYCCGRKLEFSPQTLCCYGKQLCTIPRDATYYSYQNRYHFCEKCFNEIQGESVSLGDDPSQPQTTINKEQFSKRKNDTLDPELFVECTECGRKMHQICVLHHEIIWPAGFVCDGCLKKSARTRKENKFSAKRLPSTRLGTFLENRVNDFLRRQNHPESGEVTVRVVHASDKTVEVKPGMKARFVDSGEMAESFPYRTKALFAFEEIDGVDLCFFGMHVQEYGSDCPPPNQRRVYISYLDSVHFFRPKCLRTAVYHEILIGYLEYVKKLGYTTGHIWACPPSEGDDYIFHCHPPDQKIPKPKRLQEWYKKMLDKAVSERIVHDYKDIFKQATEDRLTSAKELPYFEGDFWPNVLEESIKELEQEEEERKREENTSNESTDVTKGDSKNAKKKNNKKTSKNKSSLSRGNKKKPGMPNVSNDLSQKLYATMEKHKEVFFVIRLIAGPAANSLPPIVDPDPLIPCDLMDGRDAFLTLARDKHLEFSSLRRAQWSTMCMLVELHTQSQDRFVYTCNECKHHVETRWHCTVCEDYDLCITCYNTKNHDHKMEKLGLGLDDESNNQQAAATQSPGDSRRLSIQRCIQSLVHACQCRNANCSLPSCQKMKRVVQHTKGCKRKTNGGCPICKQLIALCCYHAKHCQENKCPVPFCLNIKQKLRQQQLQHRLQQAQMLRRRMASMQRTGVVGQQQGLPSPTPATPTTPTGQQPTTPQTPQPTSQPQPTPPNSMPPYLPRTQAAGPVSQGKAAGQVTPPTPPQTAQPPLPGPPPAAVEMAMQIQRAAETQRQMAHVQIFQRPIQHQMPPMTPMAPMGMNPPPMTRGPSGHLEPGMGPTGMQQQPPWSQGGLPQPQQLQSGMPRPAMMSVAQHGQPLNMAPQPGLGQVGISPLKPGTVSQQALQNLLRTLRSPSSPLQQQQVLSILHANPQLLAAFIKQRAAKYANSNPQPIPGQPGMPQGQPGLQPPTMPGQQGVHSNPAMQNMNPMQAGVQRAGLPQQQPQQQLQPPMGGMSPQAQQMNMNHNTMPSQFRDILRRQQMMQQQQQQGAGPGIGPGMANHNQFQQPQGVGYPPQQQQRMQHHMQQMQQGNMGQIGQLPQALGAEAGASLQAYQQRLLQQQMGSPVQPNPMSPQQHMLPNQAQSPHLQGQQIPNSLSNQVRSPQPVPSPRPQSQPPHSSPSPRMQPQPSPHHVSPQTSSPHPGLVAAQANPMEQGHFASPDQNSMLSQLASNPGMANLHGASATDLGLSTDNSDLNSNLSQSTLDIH
UniProt Q92793, whole entry, looked up: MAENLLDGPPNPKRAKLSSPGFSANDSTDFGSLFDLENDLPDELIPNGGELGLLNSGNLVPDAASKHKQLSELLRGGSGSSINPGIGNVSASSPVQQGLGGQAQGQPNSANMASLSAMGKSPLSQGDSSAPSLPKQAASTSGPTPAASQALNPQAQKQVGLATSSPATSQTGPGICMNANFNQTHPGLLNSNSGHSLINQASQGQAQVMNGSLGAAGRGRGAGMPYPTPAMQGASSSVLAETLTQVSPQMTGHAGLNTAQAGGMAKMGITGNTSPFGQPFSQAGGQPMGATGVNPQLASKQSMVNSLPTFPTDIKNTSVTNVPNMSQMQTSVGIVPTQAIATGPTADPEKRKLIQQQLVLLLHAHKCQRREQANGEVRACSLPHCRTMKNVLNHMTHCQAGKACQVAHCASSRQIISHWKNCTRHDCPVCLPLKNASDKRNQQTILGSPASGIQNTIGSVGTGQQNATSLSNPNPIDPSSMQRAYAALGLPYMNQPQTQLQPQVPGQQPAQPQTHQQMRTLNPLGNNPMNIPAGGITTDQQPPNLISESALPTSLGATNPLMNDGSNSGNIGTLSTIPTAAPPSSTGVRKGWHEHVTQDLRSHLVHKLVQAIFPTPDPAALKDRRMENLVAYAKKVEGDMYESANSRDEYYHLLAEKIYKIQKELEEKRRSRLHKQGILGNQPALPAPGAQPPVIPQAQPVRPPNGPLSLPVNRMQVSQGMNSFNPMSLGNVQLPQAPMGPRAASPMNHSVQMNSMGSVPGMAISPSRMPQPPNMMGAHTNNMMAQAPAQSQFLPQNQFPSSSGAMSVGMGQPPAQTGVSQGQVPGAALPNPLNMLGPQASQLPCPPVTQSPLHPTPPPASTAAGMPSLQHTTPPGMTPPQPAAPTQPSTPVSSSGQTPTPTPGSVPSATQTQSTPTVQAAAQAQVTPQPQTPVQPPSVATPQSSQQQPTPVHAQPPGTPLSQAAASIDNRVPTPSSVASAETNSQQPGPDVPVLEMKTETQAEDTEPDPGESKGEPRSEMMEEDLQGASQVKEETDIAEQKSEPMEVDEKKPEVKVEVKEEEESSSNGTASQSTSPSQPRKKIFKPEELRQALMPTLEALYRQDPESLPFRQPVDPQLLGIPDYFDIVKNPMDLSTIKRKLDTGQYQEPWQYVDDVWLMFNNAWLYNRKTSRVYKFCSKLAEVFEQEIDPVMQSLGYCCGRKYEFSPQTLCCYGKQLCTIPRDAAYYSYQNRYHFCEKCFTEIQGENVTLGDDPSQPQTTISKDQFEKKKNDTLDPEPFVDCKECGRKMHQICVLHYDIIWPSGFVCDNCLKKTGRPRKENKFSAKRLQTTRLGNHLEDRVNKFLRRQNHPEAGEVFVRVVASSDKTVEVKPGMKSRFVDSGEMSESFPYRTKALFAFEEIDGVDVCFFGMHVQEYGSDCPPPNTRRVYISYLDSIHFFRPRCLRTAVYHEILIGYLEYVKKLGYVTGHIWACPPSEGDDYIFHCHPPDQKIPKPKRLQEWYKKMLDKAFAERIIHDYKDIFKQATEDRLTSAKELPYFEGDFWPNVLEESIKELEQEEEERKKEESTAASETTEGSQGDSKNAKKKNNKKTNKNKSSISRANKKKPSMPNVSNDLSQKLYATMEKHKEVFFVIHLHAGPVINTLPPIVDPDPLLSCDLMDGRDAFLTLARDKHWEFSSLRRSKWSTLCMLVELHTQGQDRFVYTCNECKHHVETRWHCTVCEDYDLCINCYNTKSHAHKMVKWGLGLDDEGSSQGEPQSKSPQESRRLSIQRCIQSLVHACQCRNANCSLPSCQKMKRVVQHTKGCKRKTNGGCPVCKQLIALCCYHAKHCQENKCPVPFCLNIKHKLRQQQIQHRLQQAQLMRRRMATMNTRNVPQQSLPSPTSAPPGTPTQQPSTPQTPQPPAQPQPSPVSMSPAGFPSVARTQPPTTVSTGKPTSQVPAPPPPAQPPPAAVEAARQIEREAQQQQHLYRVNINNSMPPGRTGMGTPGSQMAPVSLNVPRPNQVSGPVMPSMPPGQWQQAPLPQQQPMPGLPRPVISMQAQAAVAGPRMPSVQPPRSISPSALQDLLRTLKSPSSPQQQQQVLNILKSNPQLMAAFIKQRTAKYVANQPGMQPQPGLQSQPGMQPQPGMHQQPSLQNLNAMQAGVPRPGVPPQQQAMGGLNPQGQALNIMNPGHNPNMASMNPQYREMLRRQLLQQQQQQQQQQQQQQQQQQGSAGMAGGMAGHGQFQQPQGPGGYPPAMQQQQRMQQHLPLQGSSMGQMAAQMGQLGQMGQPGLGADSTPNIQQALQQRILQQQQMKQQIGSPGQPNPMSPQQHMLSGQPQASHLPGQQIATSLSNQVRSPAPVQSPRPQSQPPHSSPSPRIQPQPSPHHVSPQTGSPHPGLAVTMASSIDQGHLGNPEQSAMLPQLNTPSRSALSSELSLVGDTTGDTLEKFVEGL

Key:
[1] = biological target: T1, Histone acetyltransferase p300 (Homo sapiens, UniProt Q09472); test: Inhibition of p300 in human MCF7 cells assessed as estradiol-induced cell cycle related gene expression at 6 uM incubated for 48 hrs by RNA gene sequencing analysis relative to control; format: cell-based
[2] = biological target: T1, Histone acetyltransferase p300; test: Inhibition of p300 in human MCF7 cells assessed as downregulation of SMID-breast cancer relapse in bone up gene set overexpression at 6 uM incubated for 48 hrs by RNA gene sequencing analysis relative to control; format: cell-based
[3] = biological target: T1, Histone acetyltransferase p300; test: Inhibition of p300 in human MCF7 cells assessed as estradiol-induced G2M checkpoint related gene expression at 6 uM incubated for 48 hrs by RNA gene sequencing analysis relative to control; format: cell-based
[4] = biological target: T1, Histone acetyltransferase p300; test: Inhibition of p300 in human MCF7 cells assessed as estradiol-induced late estrogen response related gene expression at 6 uM incubated for 48 hrs by RNA gene sequencing analysis relative to control; format: cell-based
[5] = biological target: T1, Histone acetyltransferase p300; test: Inhibition of p300 in human MCF7 cells assessed as downregulation of pujana-breast cancer with BRACA1 mutated up gene set overexpression at 6 uM incubated for 48 hrs by RNA gene sequencing analysis relative to control; format: cell-based
[6] = biological target: T1, Histone acetyltransferase p300; test: Inhibition of p300 in human MCF7 cells assessed as downregulation of SMID-breast cancer luminal B up gene set overexpression at 6 uM incubated for 48 hrs by RNA gene sequencing analysis relative to control; format: cell-based
[7] = biological target: T1, Histone acetyltransferase p300; test: Inhibition of p300 in human MCF7 cells assessed as estradiol-induced early estrogen response related gene expression at 6 uM incubated for 48 hrs by RNA gene sequencing analysis relative to control; format: cell-based
[8] = biological target: T1, Histone acetyltransferase p300; test: Inhibition of p300 in human MCF7 cells assessed as estradiol-induced mitotic M/G1 phase related gene expression at 6 uM incubated for 48 hrs by RNA gene sequencing analysis relative to control; format: cell-based
[9] = biological target: T1, Histone acetyltransferase p300; test: Inhibition of p300 in human MCF7 cells assessed as downregulation of Doane-breast cancer ESR1 up gene set overexpression at 6 uM incubated for 48 hrs by RNA gene sequencing analysis relative to control; format: cell-based
[10] = biological target: T1, Histone acetyltransferase p300; test: Inhibition of p300 in human MCF7 cells assessed as downregulation of Vantveer-breast cancer ESR1 up gene set overexpression at 6 uM incubated for 48 hrs by RNA gene sequencing analysis relative to control; format: cell-based
[11] = biological target: T1, Histone acetyltransferase p300; test: Inhibition of p300 in human MCF7 cells assessed as downregulation of NIKOLSKY-breast cancer 19Q13.1 amplicon gene set overexpression at 6 uM incubated for 48 hrs by RNA gene sequencing analysis relative to control; format: cell-based
[12] = biological target: T1, Histone acetyltransferase p300; test: Inhibition of p300 in human MCF7 cells assessed as estradiol-induced mitotic cell cycle related gene expression at 6 uM incubated for 48 hrs by RNA gene sequencing analysis relative to control; format: cell-based
[13] = biological target: T1, Histone acetyltransferase p300; test: Inhibition of p300 in human MCF7 cells assessed as downregulation of SMID-breast cancer basal up gene set overexpression at 6 uM incubated for 48 hrs by RNA gene sequencing analysis relative to control; format: cell-based
[14] = biological target: T1, Histone acetyltransferase p300; test: Inhibition of p300 in human MCF7 cells assessed as estradiol-induced E2F gene expression at 6 uM incubated for 48 hrs by RNA gene sequencing analysis relative to control; format: cell-based
[15] = biological target: T1, Histone acetyltransferase p300; test: Inhibition of p300 in human MCF7 cells assessed as downregulation of Farmer-breast cancer cluster 2 gene set overexpression at 6 uM incubated for 48 hrs by RNA gene sequencing analysis relative to control; format: cell-based
[16] = biological target: T1, Histone acetyltransferase p300; test: Inhibition of p300 in human MCF7 cells assessed as estradiol-induced G1/S phase related gene expression at 6 uM incubated for 48 hrs by RNA gene sequencing analysis relative to control; format: cell-based
[17] = biological target: T1, Histone acetyltransferase p300; test: Inhibition of p300 in human MCF7 cells assessed as downregulation of Turashvili-breast lobular carcinoma vs ductal normal dn gene set overexpression at 6 uM incubated for 48 hrs by RNA gene sequencing analysis relative to control; format: cell-based
[18] = biological target: T1, Histone acetyltransferase p300; test: Inhibition of p300 in human MCF7 cells assessed as estradiol-induced DNA synthesis related gene expression at 6 uM incubated for 48 hrs by RNA gene sequencing analysis relative to control; format: cell-based
[19] = biological target: T1, Histone acetyltransferase p300; test: Inhibition of p300 in human MCF7 cells assessed as downregulation of Kras-breast cancer up v1 up gene set overexpression at 6 uM incubated for 48 hrs by RNA gene sequencing analysis relative to control; format: cell-based
[20] = biological target: T1, Histone acetyltransferase p300; test: Inhibition of p300 in human MCF7 cells assessed as estradiol-induced DNA strand elongation related gene expression at 6 uM incubated for 48 hrs by RNA gene sequencing analysis relative to control; format: cell-based
[21] = biological target: T1, Histone acetyltransferase p300; test: Inhibition of p300 in human MCF7 cells assessed as downregulation of pujana-breast cancer lit int network gene set overexpression at 6 uM incubated for 48 hrs by RNA gene sequencing analysis relative to control; format: cell-based
[22] = biological target: T1, Histone acetyltransferase p300; test: Inhibition of p300 in human MCF7 cells assessed as downregulation of SMID-breast cancer relapse in brain up gene set overexpression at 6 uM incubated for 48 hrs by RNA gene sequencing analysis relative to control; format: cell-based
[23] = biological target: T1, Histone acetyltransferase p300; test: Inhibition of p300 in human MCF7 cells assessed as downregulation of Kras 600-lung breast cancer up v1 up gene set overexpression at 6 uM incubated for 48 hrs by RNA gene sequencing analysis relative to control; format: cell-based
[24] = biological target: T1, Histone acetyltransferase p300; test: Inhibition of p300 in human MCF7 cells assessed as downregulation of Honrado-breast cancer BRCA1 vs BRCA2 up gene set overexpression at 6 uM incubated for 48 hrs by RNA gene sequencing analysis relative to control; format: cell-based
[25] = biological target: T1, Histone acetyltransferase p300; test: Inhibition of p300 in human MCF7 cells assessed as downregulation of Charafe-breast cancer luminal vs mesenchymal up gene set overexpression at 6 uM incubated for 48 hrs by RNA gene sequencing analysis relative to control; format: cell-based
[26] = biological target: T1, Histone acetyltransferase p300; test: Inhibition of p300 in human MCF7 cells assessed as estradiol-induced DNA unwinding related gene expression at 6 uM incubated for 48 hrs by RNA gene sequencing analysis relative to control; format: cell-based
[27] = biological target: T2, CREB-binding protein/Histone acetyltransferase p300 (Homo sapiens) (UniProt Q09472+Q92793); test: Inhibition of p300/CBP HAT domain in human Kasumi-1 cells assessed as reduction in H3K18 acetylation incubated for 12 hrs by Western blot analysis; format: cell-based
[28] = biological target: T2, CREB-binding protein/Histone acetyltransferase p300 (Homo sapiens); test: Inhibition of p300/CBP HAT domain in human Kasumi-1 cells assessed as reduction in H3K27 acetylation incubated for 12 hrs by Western blot analysis; format: cell-based
[29] = biological target: T1, Histone acetyltransferase p300; test: Inhibition of p300 in human MCF7 cells assessed as estradiol-induced S phase related gene expression at 6 uM incubated for 48 hrs by RNA gene sequencing analysis relative to control; format: cell-based
[30] = biological target: T1, Histone acetyltransferase p300; test: Inhibition of p300 in human MCF7 cells assessed as downregulation of poola-invasive breast cancer up gene set overexpression at 6 uM incubated for 48 hrs by RNA gene sequencing analysis relative to control; format: cell-based
[31] = biological target: T1, Histone acetyltransferase p300; test: (§1) Non-competitive inhibition of recombinant human GST-tagged p300 HAT domain (1195 to 1673 residues) expressed in Escherichia coli BL21 codon plus cells using histone H3 (1-21) peptide and increasing concentration of acetyl-CoA as substrate preincubated with enzyme for 10 mins followed by substrate addition and measured after 30 mins by scintillation counting method
[32] = biological target: T1, Histone acetyltransferase p300; test: Inhibition of p300 in human MCF7 cells assessed as estradiol-induced DNA replication related gene expression at 6 uM incubated for 48 hrs by RNA gene sequencing analysis relative to control; format: cell-based
[33] = biological target: T1, Histone acetyltransferase p300; test: Inhibition of p300 in human MCF7 cells assessed as downregulation of Yang-breast cancer ESR1 bulk up gene set overexpression at 6 uM incubated for 48 hrs by RNA gene sequencing analysis relative to control; format: cell-based
[34] = biological target: T1, Histone acetyltransferase p300; test: as §1, with “Competitive” for “Non-competitive”, “using 2 to 100 uM” for “using”, “and” for “and increasing concentration of”
[35] = biological target: T1, Histone acetyltransferase p300; test: Inhibition of p300 in human MCF7 cells assessed as estradiol-induced MYC target V1 gene expression at 6 uM incubated for 48 hrs by RNA gene sequencing analysis relative to control; format: cell-based
[36] = biological target: T1, Histone acetyltransferase p300; test: Inhibition of p300 in human MCF7 cells assessed as estradiol-induced DNA repair related gene expression at 6 uM incubated for 48 hrs by RNA gene sequencing analysis relative to control; format: cell-based
[37] = biological target: T2, CREB-binding protein/Histone acetyltransferase p300 (Homo sapiens); test: Inhibition of p300/CBP HAT domain in human Kasumi-1 cells assessed as reduction in H3K9 acetylation incubated for 12 hrs by Western blot analysis; format: cell-based
[38] = biological target: T1, Histone acetyltransferase p300; test: Inhibition of p300 in human MCF7 cells assessed as estradiol-induced G1/S transition related gene expression at 6 uM incubated for 48 hrs by RNA gene sequencing analysis relative to control; format: cell-based
[39] = biological target: T1, Histone acetyltransferase p300; test: Inhibition of p300 in human MCF7 cells assessed as downregulation of NIKOLSKY-breast cancer 16P13 amplicon gene set overexpression at 6 uM incubated for 48 hrs by RNA gene sequencing analysis relative to control; format: cell-based
[40] = biological target: T1, Histone acetyltransferase p300; test: Inhibition of p300 in human MCF7 cells assessed as downregulation of Naderi-breast cancer prognosis up gene set overexpression at 6 uM incubated for 48 hrs by RNA gene sequencing analysis relative to control; format: cell-based
[41] = biological target: T1, Histone acetyltransferase p300; test: Inhibition of p300 in human MCF7 cells assessed as downregulation of Finetti-breast cancer kinome red gene set overexpression at 6 uM incubated for 48 hrs by RNA gene sequencing analysis relative to control; format: cell-based
[42] = biological target: T1, Histone acetyltransferase p300; test: Inhibition of p300 in human MCF7 cells assessed as downregulation of sotiriou-breast cancer grade 1 vs 3 up gene set overexpression at 6 uM incubated for 48 hrs by RNA gene sequencing analysis relative to control; format: cell-based
[43] = biological target: T1, Histone acetyltransferase p300; test: Inhibition of p300 in human MCF7 cells assessed as downregulation of Vantveer-breast cancer poor prognosis gene set overexpression at 6 uM incubated for 48 hrs by RNA gene sequencing analysis relative to control; format: cell-based

Compound: CC(C)(C)c1ccc(-c2cc(CNCC3CCNCC3)sc2-c2ccc(C(C)(C)C)cc2)cc1
- fold change (FC) [1]: -4.36
- fold change (FC) [2]: 2.46
- fold change (FC) [3]: -3.85
- fold change (FC) [4]: -2.78
- fold change (FC) [5]: 3.19
- fold change (FC) [6]: 2.34
- fold change (FC) [7]: -1.98
- fold change (FC) [8]: -3.25
- fold change (FC) [9]: 2.06
- fold change (FC) [10]: 1.81
- fold change (FC) [11]: 1.53
- fold change (FC) [12]: -3.75
- fold change (FC) [13]: 2.52
- fold change (FC) [14]: -5.33
- fold change (FC) [15]: 1.97
- fold change (FC) [16]: -2.59
- fold change (FC) [17]: 1.59
- fold change (FC) [18]: -2.22
- fold change (FC) [19]: 1.61
- fold change (FC) [20]: -3.24
- fold change (FC) [21]: 2.13
- fold change (FC) [22]: 1.79
- fold change (FC) [23]: 1.82
- fold change (FC) [24]: 1.58
- fold change (FC) [25]: 1.69
- fold change (FC) [26]: -2.2
- inhibition [27]: Dose-dependent effect
- inhibition [28]: Dose-dependent effect
- fold change (FC) [29]: -2.41
- fold change (FC) [30]: 2.48
- inhibition [31]: Active
- fold change (FC) [32]: -3.65
- fold change (FC) [33]: 2.04
- inhibition [34]: Active
- fold change (FC) [35]: -2.95
- fold change (FC) [36]: -2.36
- inhibition [37]: Dose-dependent effect
- fold change (FC) [38]: -2.41
- fold change (FC) [39]: 2.44
- fold change (FC) [40]: 1.58
- fold change (FC) [41]: 2.25
- fold change (FC) [42]: 4.66
- fold change (FC) [43]: 2.16

The source made the active and inactive calls. The calls are words filed in the database; no cut-off is given here.
